Test results taken from patent US10266537B2, “3-acetylenyl-pyrazole-pyrimidine derivative, and preparation method therefor and uses thereof” (Si Chuan University, priority 2015, dated 2019).

Chains of the proteins cited; added tags and fusions are not shown. Lines headed by an entry give the natural chain unless they say otherwise; changes in a name come on top. Residues count along the entry.
UniProt P15056, whole entry V600E: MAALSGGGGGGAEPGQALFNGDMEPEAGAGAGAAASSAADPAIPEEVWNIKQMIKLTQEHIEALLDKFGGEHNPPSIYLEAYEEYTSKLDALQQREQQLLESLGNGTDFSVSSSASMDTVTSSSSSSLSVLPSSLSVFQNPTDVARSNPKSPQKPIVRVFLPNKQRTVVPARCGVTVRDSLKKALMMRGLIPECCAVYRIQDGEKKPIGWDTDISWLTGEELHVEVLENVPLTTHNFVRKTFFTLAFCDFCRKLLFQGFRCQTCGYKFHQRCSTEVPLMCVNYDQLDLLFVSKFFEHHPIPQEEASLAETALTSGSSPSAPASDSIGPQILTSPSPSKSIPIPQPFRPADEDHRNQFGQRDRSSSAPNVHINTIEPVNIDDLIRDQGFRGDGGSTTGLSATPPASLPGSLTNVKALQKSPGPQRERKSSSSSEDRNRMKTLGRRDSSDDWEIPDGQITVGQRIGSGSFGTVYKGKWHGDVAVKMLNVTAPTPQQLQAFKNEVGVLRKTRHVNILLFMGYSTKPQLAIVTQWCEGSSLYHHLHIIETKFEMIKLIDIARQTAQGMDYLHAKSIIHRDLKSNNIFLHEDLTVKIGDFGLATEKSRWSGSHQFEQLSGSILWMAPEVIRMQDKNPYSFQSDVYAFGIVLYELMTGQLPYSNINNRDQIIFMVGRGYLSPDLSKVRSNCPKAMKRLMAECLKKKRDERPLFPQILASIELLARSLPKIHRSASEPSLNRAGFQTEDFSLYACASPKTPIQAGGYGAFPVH
UniProt P15056, 417-766 V600E limits assumed: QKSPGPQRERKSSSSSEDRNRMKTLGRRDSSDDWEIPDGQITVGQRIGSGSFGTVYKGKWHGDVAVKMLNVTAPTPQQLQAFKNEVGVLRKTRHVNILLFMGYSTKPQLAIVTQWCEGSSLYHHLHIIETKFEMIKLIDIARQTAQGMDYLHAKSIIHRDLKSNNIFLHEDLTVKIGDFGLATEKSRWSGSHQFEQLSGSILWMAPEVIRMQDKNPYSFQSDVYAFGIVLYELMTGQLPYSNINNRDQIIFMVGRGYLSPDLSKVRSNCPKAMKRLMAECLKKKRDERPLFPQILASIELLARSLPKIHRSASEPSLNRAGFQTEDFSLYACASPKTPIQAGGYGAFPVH
UniProt P15056, whole entry: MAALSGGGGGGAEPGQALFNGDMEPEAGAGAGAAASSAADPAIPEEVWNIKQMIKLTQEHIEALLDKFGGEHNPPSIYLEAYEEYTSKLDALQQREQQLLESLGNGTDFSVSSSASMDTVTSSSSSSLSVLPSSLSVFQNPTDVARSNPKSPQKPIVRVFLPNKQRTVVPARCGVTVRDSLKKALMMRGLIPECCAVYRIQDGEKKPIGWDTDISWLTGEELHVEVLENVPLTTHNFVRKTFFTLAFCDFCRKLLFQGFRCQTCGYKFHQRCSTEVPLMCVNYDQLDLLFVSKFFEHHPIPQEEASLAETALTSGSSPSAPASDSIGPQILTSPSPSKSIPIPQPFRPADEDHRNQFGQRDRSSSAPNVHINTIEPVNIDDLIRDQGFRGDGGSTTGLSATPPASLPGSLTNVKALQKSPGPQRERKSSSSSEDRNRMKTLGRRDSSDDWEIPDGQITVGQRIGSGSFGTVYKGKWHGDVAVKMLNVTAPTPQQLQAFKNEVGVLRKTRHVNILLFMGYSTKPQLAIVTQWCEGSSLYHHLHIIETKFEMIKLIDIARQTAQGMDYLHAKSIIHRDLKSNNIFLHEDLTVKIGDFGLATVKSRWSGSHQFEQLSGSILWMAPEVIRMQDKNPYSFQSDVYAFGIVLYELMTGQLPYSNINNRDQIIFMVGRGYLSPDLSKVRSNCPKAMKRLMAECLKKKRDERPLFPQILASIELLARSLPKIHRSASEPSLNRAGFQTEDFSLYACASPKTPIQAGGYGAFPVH
UniProt P53667: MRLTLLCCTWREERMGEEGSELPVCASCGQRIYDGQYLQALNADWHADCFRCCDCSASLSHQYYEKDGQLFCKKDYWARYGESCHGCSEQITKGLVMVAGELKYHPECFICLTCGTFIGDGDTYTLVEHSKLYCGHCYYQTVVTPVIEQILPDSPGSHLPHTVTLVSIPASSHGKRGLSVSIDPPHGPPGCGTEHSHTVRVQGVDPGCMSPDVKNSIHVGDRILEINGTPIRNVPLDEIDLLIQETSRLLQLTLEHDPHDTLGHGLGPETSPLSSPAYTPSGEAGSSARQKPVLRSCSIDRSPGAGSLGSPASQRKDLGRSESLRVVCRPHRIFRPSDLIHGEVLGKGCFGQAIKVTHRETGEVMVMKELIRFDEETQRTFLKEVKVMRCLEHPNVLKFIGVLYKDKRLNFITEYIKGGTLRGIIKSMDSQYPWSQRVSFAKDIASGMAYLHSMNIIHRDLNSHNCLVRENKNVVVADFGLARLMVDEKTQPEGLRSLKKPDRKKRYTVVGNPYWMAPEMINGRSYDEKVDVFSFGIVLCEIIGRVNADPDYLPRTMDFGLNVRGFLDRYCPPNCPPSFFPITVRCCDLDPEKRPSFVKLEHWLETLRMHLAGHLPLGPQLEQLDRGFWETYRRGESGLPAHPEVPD

Tests used:
HepG2 = experiment: Cell proliferation inhibition assay (MTT); assay type: cell-based; settings: Homo sapiens, HepG2, 72 h, read-out: Proliferation inhibitory activity IC50
OCI-LY10 = experiment: cells; settings: Homo sapiens, OCI-Ly10, 72 h, read-out: Proliferation inhibitory activity IC50
THP-1 = experiment: Cell proliferation inhibition assay (MTT); assay type: cell-based; settings: Homo sapiens, THP-1, 72 h, read-out: Proliferation inhibitory activity IC50
Hela = experiment: Cell proliferation inhibition assay (MTT); assay type: cell-based; settings: Homo sapiens, 72 h, read-out: Proliferation inhibitory activity IC50
PANC-1 = experiment: Cell proliferation inhibition assay (MTT); assay type: cell-based; settings: Homo sapiens, PANC-1, 72 h, read-out: Proliferation inhibitory activity IC50
A2058 = experiment: cells; settings: Homo sapiens, A2058, 72 h, read-out: Proliferation inhibitory activity IC50
MM.1S = experiment: Cell proliferation inhibition assay (MTT); assay type: cell-based; settings: Homo sapiens, MM1.S, 72 h, read-out: Proliferation inhibitory activity IC50
U87 = experiment: Cell proliferation inhibition assay (MTT); assay type: cell-based; settings: Homo sapiens, U-87 MG, 72 h, read-out: Proliferation inhibitory activity IC50
H358 = experiment: cells; settings: Homo sapiens, NCI-H358, 72 h, read-out: Proliferation inhibitory activity IC50
SKBR-3 = experiment: Cell proliferation inhibition assay (MTT); assay type: cell-based; settings: Homo sapiens, SK-BR-3, 72 h, read-out: Proliferation inhibitory activity IC50
B-Raf(V600E) = B-Raf(V600E) (Homo sapiens (Human), UniProt P15056, V600E); experiment: Kinase inhibition assay (KinaseProfiler, 33P-ATP); settings: ATP at Km
B-Raf(V599E)(h) = B-Raf(V599E)(h) (Homo sapiens (Human), UniProt P15056, V600E); experiment: Kinase inhibition assay (KinaseProfiler, 33P-ATP); assay type: biochemical; settings: read-out: The percentage of the remaining active protein
LIMK1 = LIMK1 (Homo sapiens (Human), UniProt P53667); settings: ATP at Km
B-Raf = B-Raf (Homo sapiens (Human), UniProt P15056); experiment: Kinase inhibition assay (KinaseProfiler, 33P-ATP); settings: ATP at Km
H1437 = experiment: Cell proliferation inhibition assay (MTT); assay type: cell-based; settings: Homo sapiens, NCI-H1437, 72 h, read-out: Proliferation inhibitory activity IC50
ZR-75-1 = experiment: Cell proliferation inhibition assay (MTT); assay type: cell-based; settings: Homo sapiens, ZR-75-1, 72 h, read-out: Proliferation inhibitory activity IC50
A549 = experiment: Cell proliferation inhibition assay (MTT); assay type: cell-based; settings: Homo sapiens, A549, 72 h, read-out: Proliferation inhibitory activity IC50
[1] = tested on: breast cancer cell line MDA-MB-231; settings: mouse, in vivo
HT29 = experiment: Cell proliferation inhibition assay (MTT); assay type: cell-based; settings: Homo sapiens, HT-29, 72 h, read-out: Proliferation inhibitory activity IC50
BT474 = experiment: Cell proliferation inhibition assay (MTT); assay type: cell-based; settings: Homo sapiens, BT-474, 72 h, read-out: Proliferation inhibitory activity IC50
MDA-MB-415 = experiment: Cell proliferation inhibition assay (MTT); assay type: cell-based; settings: Homo sapiens, MDA-MB-415, 72 h, read-out: Proliferation inhibitory activity IC50
Miapaca-2 = experiment: Cell proliferation inhibition assay (MTT); assay type: cell-based; settings: Homo sapiens, MIA PaCa-2, 72 h, read-out: Proliferation inhibitory activity IC50
HCT116 = experiment: Cell proliferation inhibition assay (MTT); assay type: cell-based; settings: Homo sapiens, HCT-116, 72 h, read-out: Proliferation inhibitory activity IC50
plc/prf/5 = experiment: Cell proliferation inhibition assay (MTT); assay type: cell-based; settings: Homo sapiens, PLC-PRF-5, 72 h, read-out: Proliferation inhibitory activity IC50
MV4-11 = experiment: Cell proliferation inhibition assay (MTT); assay type: cell-based; settings: Homo sapiens, MV4-11, 72 h, read-out: Proliferation inhibitory activity IC50
A375 = experiment: Cell proliferation inhibition assay (MTT); assay type: cell-based; settings: Homo sapiens, A-375, 72 h, read-out: Proliferation inhibitory activity IC50
DU145 = experiment: Cell proliferation inhibition assay (MTT); assay type: cell-based; settings: Homo sapiens, DU-145, 72 h, read-out: Proliferation inhibitory activity IC50
MDA-MB-435 = experiment: Cell proliferation inhibition assay (MTT); assay type: cell-based; settings: Homo sapiens, MDA-MB-435, 72 h, read-out: Proliferative inhibitory activity MDA-MB-435 (IC50 class)

In the case of `CCn1nc(C#Cc2cc(C(=O)Nc3ccc(CN4CCN(C)CC4)c(C(F)(F)F)c3)ccc2C)c2c(N)ncnc21` [Compound 3], the IC50 (HepG2) is reported as 8.67 µM, the IC50 (OCI-LY10) is reported as 2.17 µM and the IC50 (THP-1) is reported as 5.11 µM. For the same compound, the IC50 (Hela) was 5.41 µM, the IC50 (PANC-1) was 6.56 µM and the IC50 (A2058) was 1.91 µM. It also gave an IC50 (MM.1S) of 0.872 µM, an IC50 (U87) of 0.742 µM and an IC50 (H358) of 1.67 µM. For the same compound, the IC50 (SKBR-3) was 4.52 µM.
For `Cc1ccc(NC(=O)c2ccc(C)c(C(F)(F)F)c2)cc1C#Cc1nn([C@H]2CC[C@H](O)CC2)c2ncnc(N)c12` [Compound 93], the IC50 (B-Raf(V600E)) was 0.087 µM, the remaining activity at 10 µM (B-Raf(V599E)(h)) was 14% and the IC50 (LIMK1) was 0.255 µM. For the same compound, the IC50 (B-Raf) was 0.11 µM.
With `Cc1ccc(NC(=O)c2cccc(C(F)(F)F)c2)cc1C#Cc1nn([C@H]2CC[C@H](O)CC2)c2ncnc(N)c12` [Compound 100] the IC50 (H1437) was 1.1 µM, the IC50 (ZR-75-1) was roughly 10 µM and the IC50 (A549) was greater than 10 µM. The IC50 (Hela) was 4.51 µM, the “inhibitory effect compared to positive control” value [1] was “better than the positive control (paclitaxel and dasatinib)” and the tumor growth inhibition [1] was “significantly inhibit tumor growth”. The IC50 (HT29) was 0.03 µM, the IC50 (BT474) was greater than 10 µM and the IC50 (MDA-MB-415) was roughly 10 µM. The IC50 (Miapaca-2) was less than 0.6 µM, the IC50 (HCT116) was 2.3 µM and the IC50 (plc/prf/5) was roughly 10 µM. For the same compound, the IC50 (MV4-11) was 0.079 µM, the IC50 (A375) was roughly 0.03 µM and the IC50 (DU145) was 0.0292 µM.
`Cc1ccc(C(=O)Nc2ccc(CN3CCN(C)CC3)c(C(F)(F)F)c2)cc1C#Cc1nn(C2CCNCC2)c2ncnc(N)c12` [Compound 120] showed an IC50 (MDA-MB-435) of 0.1 to 0.5 µM.
